Read-outs that look alike come from different tables or passages of the source.
System: hepatic gene expression

## CN(CCOc1ccc(CC2SC(=O)NC2=O)cc1)c1ccccn1 (centres unmarked) [Rosiglitazone]
GenBank AA619207, mouse liver, 8 wk in diet vs CON
  average fold change in specific mRNA: EST: −1.7 fold
GenBank AA959954, mouse liver, 8 wk in diet vs CON
  average fold change in specific mRNA: EST: −1.5 fold
GenBank AF026073, mouse liver, 8 wk in diet vs CON
  average fold change in specific mRNA: Amine N-sulfotransferase: −1.5 fold
GenBank AI266885, mouse liver, 8 wk in diet vs CON
  average fold change in specific mRNA: EST: −2.0 fold
GenBank AI842667, mouse liver, 8 wk in diet vs CON
  average fold change in specific mRNA: Cathepsin C (second time): 1.7 fold
GenBank AI852144, mouse liver, 8 wk in diet vs CON
  average fold change in specific mRNA: Pre-B-cell colony-enhancing factor: −1.5 fold
GenBank AV349152, mouse liver, 8 wk in diet vs CON
  average fold change in specific mRNA: Regulator of G-protein signaling 16: 1.6 fold
GenBank AW04575, mouse liver, 8 wk in diet vs CON
  average fold change in specific mRNA: Quiescin Q6: 1.6 fold
GenBank AW060549, mouse liver, 8 wk in diet vs CON
  average fold change in specific mRNA: EST: −1.7 fold
GenBank AW122933, mouse liver, 8 wk in diet vs CON
  average fold change in specific mRNA: Ectonucleotide pyrophosphatase/phosphodiesterase 2: −1.8 fold
GenBank AW123556, mouse liver, 8 wk in diet vs CON
  average fold change in specific mRNA: Quiescin Q6: 1.7 fold
GenBank J03958, mouse liver, 8 wk in diet vs CON
  average fold change in specific mRNA: Glutathione S-transferase, alpha 2 (Yc2): −1.7 fold
GenBank K02236, mouse liver, 8 wk in diet vs CON
  average fold change in specific mRNA: Metallothionein 2: 1.6 fold
GenBank L20315, mouse liver, 8 wk in diet vs CON
  average fold change in specific mRNA: Macrophage expressed gene 1: −1.6 fold
GenBank M21495, mouse liver, 8 wk in diet vs CON
  average fold change in specific mRNA: Actin, gamma, cytoplasmic: −1.8 fold
GenBank M22832, mouse liver, 8 wk in diet vs CON
  average fold change in specific mRNA: keratin complex 1, acidic, gene 18: −1.6 fold
GenBank M28739, mouse liver, 8 wk in diet vs CON
  average fold change in specific mRNA: Tubulin, beta 2: −1.5 fold
GenBank M60523, mouse liver, 8 wk in diet vs CON
  average fold change in specific mRNA: Inhibitor of DNA binding 3: −1.7 fold
GenBank M64248, mouse liver, 8 wk in diet vs CON
  average fold change in specific mRNA: Apolipoprotein A-IV: −3.4 fold
GenBank U19118, mouse liver, 8 wk in diet vs CON
  average fold change in specific mRNA: Activating transcription factor 3: −1.5 fold
GenBank U74683, mouse liver, 8 wk in diet vs CON
  average fold change in specific mRNA: Cathepsin C: 1.7 fold
GenBank U88327, mouse liver, 8 wk in diet vs CON
  average fold change in specific mRNA: Suppressor of cytokine signaling 2 (Table 6: Cytokine inducible SH2-containing protein 2): 1.7 fold
GenBank U90535, mouse liver, 8 wk in diet vs CON
  average fold change in specific mRNA: Flavin containing monooxygenase 5: −1.5 fold
GenBank U94828, mouse liver, 8 wk in diet vs CON
  average fold change in specific mRNA: Regulator of G-protein signaling 16: 1.8 fold
GenBank V00835, mouse liver, 8 wk in diet vs CON
  average fold change in specific mRNA: Metallothionein 1: 1.7 fold
GenBank X15662, mouse liver, 8 wk in diet vs CON
  average fold change in specific mRNA: Keratin complex 2, basic, gene 8: −1.7 fold
GenBank X15986, mouse liver, 8 wk in diet vs CON
  average fold change in specific mRNA: Lectin, galactose binding, soluble 1: −1.8 fold
GenBank X73230, mouse liver, 8 wk in diet vs CON
  average fold change in specific mRNA: Arylsulfatase A: −1.6 fold
GenBank X81579, mouse liver, 8 wk in diet vs CON
  average fold change in specific mRNA: Insulin-like growth factor binding protein 1: −1.6 fold
GenBank X95279, mouse liver, 8 wk in diet vs CON
  average fold change in specific mRNA: Thyroid hormone responsive SPOT14 homolog (Rattus): −1.5 fold
GenBank Y00884, mouse liver, 8 wk in diet vs CON
  average fold change in specific mRNA: Calcium binding protein, intestinal: 1.6 fold
Mouse liver, 8 weeks
  genes altered by drug and changed similarly by LT-CR: 16 genes
  genes altered by drug and changed similarly by ST-CR: 17 genes
  genes whose drug-induced change is a subset of changes induced by either LT- or ST-CR: 21 genes
  percentage of drug-altered genes altered by both LT-CR and ST-CR: 27%
  percentage of drug-altered genes changed similarly by LT-CR: 36%
Mouse liver, 8 weeks of treatment vs CON
  number of genes with significantly changed expression: 44 genes
Mouse liver, 8 weeks, FIG. 2 category LT-CR only
  genes with changed expression identical to changes caused by LT-CR: 4 genes
Mouse liver, 8 weeks, FIG. 2 category ST-CR only
  genes with changed expression identical to changes caused by ST-CR: 5 genes
Mouse liver, 8 weeks, altered by both LT-CR and ST-CR
  genes with changed expression identical to changes caused by LT-CR and ST-CR: 12 genes
Mouse liver, 8 weeks, changes not affected by LT- or ST-CR
  percentage of drug-specific effects: 41%
Mouse liver, 8 weeks, not affected by LT- or ST-CR
  genes with changed expression due to the drug alone (drug-specific changes): 18 genes
Mouse liver, 8 weeks, opposite to LT-CR
  genes with changed expression in the opposite direction compared to CR: 5 genes
mouse, in vivo
  average fold change in specific mRNA: DNA cross-link repair 1A, PSO2 homolog (S. cereviciae): −1.6 fold

— US20040180003A1, “Methods of screening for caloric restriction mimetics and reproducing effects of caloric restriction” (priority 2003, published 2004)
